Results from patent US11578372B2, “NTRK1 fusion molecules and uses thereof” (FOUNDATION MEDICINE, INC., priority 2012, dated 2023).
“Also recorded” adds a separate entry of the source.

System: lung adenocarcinoma harboring MPRIP-NTRK1
Test: Treatment of the index patient (MPRIP-NTRK1 lung adenocarcinoma) with crizotinib
Format: in vivo, human
Details: crizotinib 250 mg twice daily, one patient

## C[C@@H](Oc1cc(-c2cnn(C3CCNCC3)c2)cnc1N)c1c(Cl)ccc(F)c1Cl [crizotinib]
  radiographic tumor response: tumor shrinkage; also recorded: minor radiographic response
